# Antibody variant affinities, Ab-14 light chain, assay B

The measurements come from Li et al. 2023 (doi:10.1038/s41467-023-39022-2) through the FLAb antibody collection.

The target is the same throughout: PDVDLGDISGINAS, from the HR2 region of SARS-CoV-2 spike.

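The parent was found by panning a naive human phage display library on the peptide. The variants were designed computationally from a first round of random CDR variants and then made and measured. Several design methods are mixed in this list. AlphaSeq pools MATa yeast showing the antibodies with MATalpha yeast showing the peptide. Binding brings cells together so that they mate, and sequencing counts the barcode pairs among the diploids. A regression on co-assayed BCL2-family reference pairs converts the normalised counts of each replicate to an apparent Kd. Each pool was mated in six replicate cultures.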

Ab-14 is the parent antibody, in scFv form: VH, then the linker GGGGSGGGGSGGGGS, then VL. The heavy chain is unchanged in all variants.
VH: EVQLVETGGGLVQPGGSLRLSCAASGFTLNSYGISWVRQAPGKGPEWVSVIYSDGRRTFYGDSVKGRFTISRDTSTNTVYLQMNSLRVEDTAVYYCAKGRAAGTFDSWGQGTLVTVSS
VL: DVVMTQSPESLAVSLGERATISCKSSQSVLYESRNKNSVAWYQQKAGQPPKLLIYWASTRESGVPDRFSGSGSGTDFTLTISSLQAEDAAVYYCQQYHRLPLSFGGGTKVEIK

The parent's light chain CDRs are KSSQSVLYESRNKNSVA, WASTRES, QQYHRLPLS; each variant's own CDRs replace them letter for letter. This list holds designs with more than six substitutions. Each Kd is an estimate from the mating assay, the geometric mean of the replicates in which the pair was seen; lower is stronger. "nd" marks a missing value. The strain was present, yet no cells mated with the target were sequenced in any replicate, which points to weak or no binding. Of ten entries with the parent sequence, four were seen in most replicates (averages 2.2 nM to 240 nM), three in one and three in none, so single entries are noisy.

* RLLYQDLAQTGKLNSVA / DATITQQ / QQYHQLPLM -> 7.0 nM (6 of 6 replicates; controls 2 of 18)
* KAPQSDWYESRNKNSVA / SASTRSQ / QQYHRLPLS -> 990 pM (6 of 6 replicates; controls 0 of 18)
* KFSQSVLYGERDGNSVA / NASQRLS / QQYHRLPLS -> 2.0 nM (6 of 6 replicates; controls 3 of 18)
* KLSMSYRYESENKNSIA / ELVTRLS / QQYHRLPLS -> 160 nM (1 of 6 replicates; controls 0 of 18)
* MISVEEAPAGQQESSIA / HGGTKSE / QQYNRLPLA -> 10 nM (5 of 6 replicates; controls 0 of 18)
* NFGQKMALYTGDRYSIA / DATVKAD / QQYSRLPLT -> 1.4 nM (6 of 6 replicates; controls 2 of 18)
* MISQLMNSGQFAINSVA / QASIRNE / QQYDRLPLI -> 18 nM (6 of 6 replicates; controls 0 of 18)
* KLGMYLNTLYEKADNVA / DLVEREN / QQYHRLPLS -> 6.3 nM (6 of 6 replicates; controls 3 of 18)
* KMSQEAMMLSRNKNSVA / QASTREQ / QQYHRLPLS -> 1.5 nM (6 of 6 replicates; controls 0 of 18)
* NVDISANVGYNHKAAVA / GHDERVG / QQYYRLPLA -> 3.6 nM (6 of 6 replicates; controls 1 of 18)
* KLRQVTEYESFNKNSVA / QTETRED / QDYDRLPLS -> nd (0 of 6 replicates; controls 1 of 18)
* HISMVMGTKGYAKNSVA / NEETRED / QQYHRLPLS -> 45 nM (6 of 6 replicates; controls 0 of 18)
* KVSEFMRGLMMRKDNIA / DNVTRQN / QQYDRLPLS -> 740 nM (4 of 6 replicates; controls 2 of 18)
* NIVEDNAGDQKNSQNIA / SVDQRED / QQYQKLPLM -> 850 pM (6 of 6 replicates; controls 2 of 18)
* MISQLYNMGTFAINSVA / QASIRNS / QQYDRLPLI -> 110 nM (1 of 6 replicates; controls 1 of 18)
* KLYMSTGFESRNKDSIA / DNSTRGR / QQYHRLPLS -> 11 nM (6 of 6 replicates; controls 0 of 18)
* NLGFVDDNDNRMMMSVA / DANTVGE / QQYNRLPLA -> 7.9 nM (6 of 6 replicates; controls 0 of 18)
* KLEQSDLLESRNKQSVA / NASQRER / QQYHRLPLS -> 1.1 nM (6 of 6 replicates; controls 0 of 18)
* LISGVWDYGSRNYNSVA / QTSTRES / QQYDRLPLE -> 16 nM (6 of 6 replicates; controls 0 of 18)
* MMSMFPNEPTIDSNAIA / DHVQRNT / QQYDRLPLS -> nd (0 of 6 replicates; controls 1 of 18)
* KLSQQGLYGSRNANSVA / NASTREQ / QQYHRLPLS -> 700 pM (6 of 6 replicates; controls 0 of 18)
* SLGLVTMLEYAGRNNVA / NNSTRED / QQYDRLPLS -> 32 nM (1 of 6 replicates; controls 0 of 18)
* KFQQSQLYESRNMNSVA / NASKRMS / QQYHRLPLK -> 4.8 nM (6 of 6 replicates; controls 0 of 18)
* KLSASTSYESLNKNSVA / ELTTRGG / QQYNRLPLS -> 4.0 nM (6 of 6 replicates; controls 1 of 18)
* ILSQSVLMGSHLKNSVA / QASTRFS / QQYHRLPLS -> 2.4 nM (6 of 6 replicates; controls 0 of 18)
* KLMYLVLYESRNKNSVA / GASTRLQ / QQYHRLPLS -> 9.7 nM (6 of 6 replicates; controls 0 of 18)
* RMNKHMSGATEAKNSMA / GVEHRAN / QSYHRLPLS -> 28 nM (6 of 6 replicates; controls 0 of 18)
* MIHEMMGLMSHKNSSIA / DNSTRED / QQYDRLPLS -> 500 nM (1 of 6 replicates; controls 0 of 18)
* MISQLFNMGQFAINSVA / QASQRNE / QQYDRLPLI -> 1.8 nM (6 of 6 replicates; controls 0 of 18)
* TLGTVTLMESRNKNNVA / QMSTREK / QQYDRLPLS -> 2.2 nM (6 of 6 replicates; controls 2 of 18)
* QIGGLLNFESSKINNVA / QMETRVN / QQYDRLPLS -> 4.8 nM (6 of 6 replicates; controls 3 of 18)

For reference, 5 entries of the list once more:

| CDR-L1 | CDR-L2 | CDR-L3 | Kd (apparent) | seen in | empty controls |
|---|---|---|---|---|---|
| NVDISANVGYNHKAAVA | GHDERVG | QQYYRLPLA | 3.6 nM | 6/6 | 1/18 |
| NIVEDNAGDQKNSQNIA | SVDQRED | QQYQKLPLM | 850 pM | 6/6 | 2/18 |
| MISQLMNSGQFAINSVA | QASIRNE | QQYDRLPLI | 18 nM | 6/6 | 0/18 |
| LISGVWDYGSRNYNSVA | QTSTRES | QQYDRLPLE | 16 nM | 6/6 | 0/18 |
| MMSMFPNEPTIDSNAIA | DHVQRNT | QQYDRLPLS | nd | 0/6 | 1/18 |

The authors averaged sequences with at least three values out of six and counted those with two or fewer as poor binders. Three control strains display no target. For all light chain designs, 4% of the pairings with them gave a signal, with a median of 430 nM and one signal in twenty below 38 nM, so weak values seen in few replicates may be background. The control count says in how many pairings with the empty strains this scFv gave a signal. Values of this round are not directly comparable with the first-round values of the same sequences.